Laboratory results published in patent US20110135657A1 (published 2011).

Biological target: human FGF21 receptor (FGF21R): full length human FGFR1c and full length human β-Klotho co-expressed at the … (human, UniProt P11362; Q86Z14)
Assay: cell-based or functional assay

- EC50 (nM), Erk-phosphorylation, human adipocyte assay: 0.37 nM
B1: 16H7 variant, heavy chain V24F + I83T (antibody, human IgG2, lambda)
heavy: QVTLKESGPVLVKPTETLTLTCTFSGFSLNNARMGVSWIRQPPGKALEWLAHIFSNDEKSYSTSLKSRLTISKDTSKSQVVLTMTNMDPVDTATYYCARSVVTGGYYYDGMDVWGQGTTVTVSSASTKGPSVFPLAPCSRSTSESTAALGCLVKDYFPEPVTVSWNSGALTSGVHTFPAVLQSSGLYSLSSVVTVPSSNFGTQTYTCNVDHKPSNTKVDKTVERKCCVECPPCPAPPVAGPSVFLFPPKPKDTLMISRTPEVTCVVVDVSHEDPEVQFNWYVDGVEVHNAKTKPREEQFNSTFRVVSVLTVVHQDWLNGKEYKCKVSNKGLPAPIEKTISKTKGQPREPQVYTLPPSREEMTKNQVSLTCLVKGFYPSDIAVEWESNGQPENNYKTTPPMLDSDGSFFLYSKLTVDKSRWQQGNVFSCSVMHEALHNHYTQKSLSLSPGK
light: SYVLTQPPSVSVAPGQTARITCGGNNIGSESVHWYQQKPGQAPVLVVYDDSDRPSGIPERFSGSNSGNTATLTISRVEAGDEADYYCQVWDGNSDHVVFGGGTKLTVLGQPKANPTVTLFPPSSEELQANKATLVCLISDFYPGAVTVAWKADGSPVKAGVETTKPSKQSNNKYAASSYLSLTPEQWKSHRSYSCQVTHEGSTVEKTVAPTECS
